# Measured values as given in patent US8129592B2, “Plant isoflavonoid hydroxylases and methods of use thereof” (The Samuel Roberts Noble Foundation, Inc., priority 2003, dated 2012).
# Molecular target: T1, MtCYP81E8 (Medicago truncatula, UniProt Q6WNQ8)
# T1 construct: The full length CYP81E8 cDNA was directly excised from its original clone; made in house; host or cells: Saccharomyces cerevisiae WAT11, vector YeDP60; microsomal fraction
# T1 sequence (Q6WNQ8 1-499): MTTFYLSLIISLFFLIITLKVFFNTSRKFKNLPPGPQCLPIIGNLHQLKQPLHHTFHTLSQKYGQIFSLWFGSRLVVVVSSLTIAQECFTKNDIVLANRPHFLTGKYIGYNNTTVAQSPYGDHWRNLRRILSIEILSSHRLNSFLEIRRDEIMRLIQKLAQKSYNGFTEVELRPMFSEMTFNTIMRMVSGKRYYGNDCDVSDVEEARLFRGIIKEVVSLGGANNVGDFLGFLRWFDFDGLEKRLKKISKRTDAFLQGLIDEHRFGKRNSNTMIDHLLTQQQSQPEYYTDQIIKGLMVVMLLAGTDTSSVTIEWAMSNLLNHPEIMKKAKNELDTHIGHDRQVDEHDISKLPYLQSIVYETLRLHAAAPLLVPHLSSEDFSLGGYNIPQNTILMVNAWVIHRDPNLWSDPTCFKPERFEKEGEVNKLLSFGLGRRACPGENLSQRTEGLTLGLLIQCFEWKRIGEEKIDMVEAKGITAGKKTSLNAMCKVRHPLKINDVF
# Assay: Hydroxylase assay with yeast microsomes expressing recombinant MtCYP81E8
# Type: biochemical
# Details: standard assay conditions, or at different pH values and NADPH concentrations
# Description: PCR products were digested with BamHI and KpnI and ligated into the yeast expression vector YeDP60 following BamHI/KpnI digestion. MtCYP81E8 was directly excised from the original clone in pBSK(+) by BamHI and KpnI and inserted into YeDP60. All constructs were sequenced to ensure that there were no PCR-introduced errors. The constructs were then transferred into yeast (Saccharomyces cerevisiae) strain WAT11 with a chromosomally integrated Arabidopsis NADPH: cytochrome P450 reductase gene (Pompon et al., 1996) by the LiAc method (Gietz et al., 1992), and transformants selected on SDI media (Pompon et al., 1996). […]
# After incubation at ˜80 rpm for 30 to 40 min, spheroplasts were centrifuged down for 5 min, washed twice with Zymolyase buffer B, and then twice with phosphate buffer A (0.1 M potassium phosphate pH 8.0, 1 M sorbitol, 14 mM 2-mercaptoethanol). […] Protein was quantified using a Bio-Rad protein assay kit (Bio-Rad, Hercules, Calif.).
# Hydroxylase assays were performed in phosphate buffer C in a total volume of 150 μl containing 2 mM NADPH, 40 μM isoflavone substrate and 40˜70 pmol P450 protein. […] The extracts were combined, evaporated under N2, re-suspended in 60 μl of methanol, and analyzed by HPLC or LC-MS. […]
# Reaction products from enzyme assays (30 μl) were analyzed by HPLC. […] UV absorption was monitored at 235, 254, 287 and 310 nm with a photodiode array detector. […]
smiles,measurement,value
O=c1c(O)c(-c2ccc(O)cc2)oc2cc(O)cc(O)c12 [kaempferol],Activity of recombinant MtCYP81E8 with substrate (in words),no activity
